## Antibody variant affinities, Ab-14 heavy chain, assay 1

Source: Engelhart et al. 2022 (doi:10.1038/s41597-022-01779-4), MIT Lincoln Laboratory and A-Alpha Bio; data file from the FLAb repository.

Target peptide (SARS-CoV-2 spike, HR2 region): PDVDLGDISGINAS

Parent scFv Ab-14: VH joined to VL by a (GGGGS)3 linker. Changes lie in the heavy chain CDRs alone.
VH: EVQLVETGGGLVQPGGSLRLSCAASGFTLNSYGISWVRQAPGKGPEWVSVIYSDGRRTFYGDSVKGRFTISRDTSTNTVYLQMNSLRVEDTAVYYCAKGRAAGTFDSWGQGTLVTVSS
VL: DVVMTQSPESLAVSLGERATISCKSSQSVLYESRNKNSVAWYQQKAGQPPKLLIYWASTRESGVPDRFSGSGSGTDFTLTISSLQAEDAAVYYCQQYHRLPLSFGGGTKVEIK

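The parent was found by panning a naive human phage display library on the peptide. In library AAYL49, one, two or three CDR residues were substituted; doubles and triples were drawn at random. The assay is AlphaSeq: two haploid yeast populations carry antibody and antigen on their surface. The frequency of each diploid, read from paired DNA barcodes, reflects how well the two displayed proteins bind. The ratio of observed to expected reads was calibrated, replicate by replicate, on BCL2-family standards whose Kd was known from biolayer interferometry. Each pool was mated in three replicate cultures.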

Each variant is given by its three heavy chain CDRs, as the data file delimits them; those of the parent are GFTLNSYGIS, VIYSDGRRTFYGDSVK, GRAAGTFDS. Scale: log10 of Kd in nM, estimated from mating counts; low values are strong binders. Replicates are averaged; those with no signal do not enter the mean. A pair that was not seen in that replicate is written "n.d."; this usually means weak binding, but a binder can also be missed. As a blank, each scFv also met three strains without target: over library AAYL49, 15% of these pairings were detected, typically at 4.06 and seldom below 2.83. Also given: how often the same scFv was detected with the empty control strains, with their mean in brackets.

| CDR-H1 | CDR-H2 | CDR-H3 | log10 Kd (nM) by replicate | mean log10 Kd (nM) | signal with controls |
|---|---|---|---|---|---|
| GFTLNSYGIS | VIYSDGRRTFQGSSVK | GLAAGTFDS | 5.27 / n.d. / n.d. | 5.27 | 1/9 (4.44) |
| GFTLNSYGIG | VCYSDHRRTFYGDSVK | GRAAGTFDS | n.d. / n.d. / n.d. | n.d. | 1/9 (4.10) |
| GATLNSYGWS | VIYSDGRRTFYGDSVK | GRAAGTIDS | n.d. / n.d. / n.d. | n.d. | 1/9 (5.58) |
| GFTLNSYGIS | VIYSDGMRTFYGDSVK | GQAAGTFDL | 0.24 / 0.62 / 0.47 | 0.44 | 1/9 (4.57) |
| GFTLNPYGES | VIYSDGRRTFYGDSVK | DRAAGTFDS | n.d. / 5.31 / 4.58 | 4.94 | 3/9 (5.05) |
| FFTLNSYGIS | VRYSDGRRTFYGDSVK | ERAAGTFDS | n.d. / n.d. / n.d. | n.d. | 1/9 (3.51) |
| GFTLNSYGIS | VIYEDLRRTFYGDSVK | GRAQGTFDS | n.d. / 4.18 / n.d. | 4.18 | 2/9 (3.26) |
| WFTLNSYGIS | VIYSDGRRTFNGDSVK | GRAAGTADS | n.d. / n.d. / n.d. | n.d. | 0/9 |
| GFTLNSYGIS | VIYSDGRPTFYGDSHK | GRAAGFFDS | n.d. / 4.08 / 5.16 | 4.62 | 0/9 |
| GFTLNSYGIS | PIYSDWRRTFYGDSVK | GRAAYTFDS | n.d. / 3.73 / n.d. | 3.73 | 2/9 (3.79) |
| GFTLNSYGLS | VIRSLGRRTFYGDSVK | GRAAGTFDS | n.d. / n.d. / n.d. | n.d. | 0/9 |
| GFTLNSYGIE | VIYSDGRRTFRGDSVK | GRAAGTWDS | n.d. / n.d. / n.d. | n.d. | 0/9 |
| GFTHNSYGIS | VIYSDGRRTFYGDEVK | GRAAGTFDS | 5.58 / n.d. / n.d. | 5.58 | 0/9 |
| GFTLGSYGIS | VIYSDGRRTFYGDSVN | GRAAGTFDS | 1.59 / 1.80 / 2.03 | 1.81 | 1/9 (3.97) |
| GFTLNDYGIS | VCYSDGRRTFYGDSVK | GRAAGTFDS | 1.51 / 1.56 / 1.89 | 1.65 | 2/9 (3.93) |
| WFTPNSYGIS | VIYSDGRRTFYGDSVK | GRAAGTFYS | n.d. / n.d. / n.d. | n.d. | 3/9 (3.42) |
| GFTLNSYKIS | VIYSDGRRTFYGDSVK | GRAANTFDS | n.d. / n.d. / n.d. | n.d. | 3/9 (4.29) |
| GFTLNSYGIS | VRMSDGRRTFYGDSVK | GRAAGTFDS | n.d. / n.d. / n.d. | n.d. | 0/9 |
| GFTRNSYGIS | CIYSDGTRTFYGDSVK | GRAAGTFDS | n.d. / n.d. / n.d. | n.d. | 0/9 |
| GFTLNSYGIS | VIYSSGRRTFYGDWVK | GLAAGTFDS | n.d. / n.d. / n.d. | n.d. | 0/9 |
| GFTLNLYGIS | VIYSDGRRTFMGDSVK | GRAAGPFDS | 5.08 / n.d. / n.d. | 5.08 | 2/9 (3.97) |
| GFTLNSYGIS | VIYDDYRRTFYGDSVK | GRAAGTFDE | n.d. / n.d. / n.d. | n.d. | 3/9 (4.39) |
| AFTLNSYYIS | VIYSDGRNTFYGDSVK | GRAAGTFDS | n.d. / n.d. / n.d. | n.d. | 0/9 |
| GITLNSYGIS | GIYSDGRRTFYGDSVK | GRAAGTFDS | 4.04 / 2.94 / n.d. | 3.49 | 0/9 |
| GFTLNSYGIK | VIDSDGRRTFYIDSVK | GRAAGTFDS | 5.67 / n.d. / n.d. | 5.67 | 2/9 (3.05) |
| GKTANSYGIS | VIYSDGRRTFYGDSVK | GRAAGTFDS | 2.54 / 2.81 / 2.63 | 2.66 | 1/9 (3.95) |
| DFTLNSIGIS | VIYSDGRRTFYGDSVK | QRAAGTFDS | n.d. / 5.09 / n.d. | 5.09 | 3/9 (3.84) |
| RFTLNSNGIL | VIYSDGRRTFYGDSVK | GRAAGTFDS | 1.32 / 1.79 / 1.73 | 1.61 | 2/9 (2.91) |
| GFTLNSYGVS | VIYSDGRRNFYIDSVK | GRAAGTFDS | 1.46 / 1.50 / 1.62 | 1.53 | 3/9 (4.06) |
| GFTLNSYGIS | VIYSDGRRTDYGDCVK | GRAAGTSDS | n.d. / n.d. / n.d. | n.d. | 0/9 |
| GFTLNSGGDS | VKYSDGRRTFYGDSVK | GRAAGTFDS | n.d. / n.d. / n.d. | n.d. | 0/9 |
| GFTLNSYGIS | VIYSDGRRTAYGDSVP | GRAAGPFDS | 4.01 / 3.52 / 3.65 | 3.73 | 3/9 (4.25) |
| GFTLNSYGIS | VIYSDGRRTFYGDSEK | GRAAATEDS | 5.58 / 3.93 / n.d. | 4.76 | 3/9 (5.06) |
| GFTLNSYGIS | VIYSKGRRTFYGDSVL | GRAAGEFDS | 3.67 / n.d. / n.d. | 3.67 | 2/9 (4.10) |